This passage reports normalized activity (activation) results from PubChem BioAssay AID1259310 (The Scripps Research Institute Molecular Screening Center, 2017).

Amino acid sequences for entries named in this document (tags omitted). A change or cut given only in a name is not applied to a line headed by its entry.
UniProt Q969H0, whole entry, stated change not applied: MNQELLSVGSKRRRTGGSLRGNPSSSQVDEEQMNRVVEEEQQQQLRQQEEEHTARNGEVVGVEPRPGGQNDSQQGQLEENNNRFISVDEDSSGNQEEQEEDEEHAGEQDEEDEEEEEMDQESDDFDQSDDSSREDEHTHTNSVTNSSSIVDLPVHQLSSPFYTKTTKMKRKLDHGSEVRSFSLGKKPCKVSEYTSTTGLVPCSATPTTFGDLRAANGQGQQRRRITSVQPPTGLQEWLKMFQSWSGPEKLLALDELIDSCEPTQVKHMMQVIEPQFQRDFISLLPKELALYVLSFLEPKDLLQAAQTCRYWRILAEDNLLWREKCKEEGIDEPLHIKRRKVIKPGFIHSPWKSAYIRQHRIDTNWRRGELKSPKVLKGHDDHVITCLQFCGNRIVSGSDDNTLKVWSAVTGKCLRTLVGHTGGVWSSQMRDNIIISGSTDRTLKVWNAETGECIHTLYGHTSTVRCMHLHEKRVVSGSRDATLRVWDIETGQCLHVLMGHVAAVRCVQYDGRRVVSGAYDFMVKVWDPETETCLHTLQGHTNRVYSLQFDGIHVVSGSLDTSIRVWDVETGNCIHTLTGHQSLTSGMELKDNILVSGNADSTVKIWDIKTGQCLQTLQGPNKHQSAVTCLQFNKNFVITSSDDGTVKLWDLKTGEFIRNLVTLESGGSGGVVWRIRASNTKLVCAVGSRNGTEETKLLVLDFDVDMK

Only a part is listed here, and it is no random draw. Activity calls are given as the source filed them. No stated cut-off is given here; in the data, active means normalized activity above about 1.9%; inactive means the rest.

The experiment deals with F-box/WD repeat-containing protein 7 (Homo sapiens) (UniProt Q969H0). In words: FBW7 E3 ligase activators, primary screen, biochemical, AlphaScreen, human (AID 1259310).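 Further: purified mutant Fbw7 with reduced substrate affinity.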 The note with it: AlphaScreen FBW7–phospho-cyclin E peptide binding, activator screen; at 26.1 µM; hits give high values. Background: Bead proximity is the source of the signal in Alpha formats.
In the case of `CCOC(=O)c1ccc(NP(C)(=O)Oc2ccc(Cl)cc2)cc1` (centres undefined), the normalized activity (activation) is inactive: 0.05%.

As for `CP(=O)(OC12CC3CC(CC(C3)C1)C2)OC12CC3CC(CC(C3)C1)C2`, the normalized activity (activation) was inactive: -0.08%.

For `O=[N+]([O-])c1cc([N+](=O)[O-])c(Nc2ccccc2)c([N+](=O)[O-])c1`, the normalized activity (activation) is inactive: -0.27%.

With `CC(C)c1ccc(OP(C)(=O)O)cc1`, the normalized activity (activation) was inactive: 0.65%.

Turning to `NNc1c([N+](=O)[O-])cc([N+](=O)[O-])cc1[N+](=O)[O-]`, the normalized activity (activation) is inactive: -0.13%.

In the case of `Nc1nonc1-[n+]1nc2nonc2[n-]1`, the normalized activity (activation) was inactive: 0.07%.

Take `CP(=O)(Nc1cccc(Cl)c1)Nc1cccc(Cl)c1`: the normalized activity (activation) was inactive: -0.07%.

Regarding `CC(Nc1c([N+](=O)[O-])cc([N+](=O)[O-])cc1[N+](=O)[O-])c1ccc([N+](=O)[O-])cc1` (centres undefined), the normalized activity (activation) is inactive: -0.07%.

Turning to `CP(=O)(Nc1ccccc1Br)Oc1ccccc1` (centres undefined), the normalized activity (activation) is inactive: 0.21%.

Turning to `COc1ccccc1OP(C)(=O)Nc1ccccc1` (centres undefined), the normalized activity (activation) was inactive: 0.14%.

Turning to `CP(=O)(Nc1ccc(Cl)cc1)Oc1ccccc1` (centres undefined), the normalized activity (activation) was inactive: -0.03%.

For the compound `O=[N+]([O-])c1cc([N+](=O)[O-])c(CCO)c([N+](=O)[O-])c1`, the normalized activity (activation) was inactive: -0.09%.

With `CN(C)CCOC(=O)C(O)(c1ccccc1)c1ccccc1`, the normalized activity (activation) was inactive: 0.04%.

For `CP(=O)(O)OC(c1ccccc1)C(F)(F)F` (centres undefined), the normalized activity (activation) was inactive: 0.23%.

Consider `COc1ccc(NP(C)(=O)OC(c2ccccc2)C(F)(F)F)cc1` (centres undefined), for which the normalized activity (activation) was inactive: 0.13%.

As to `CP(=O)(Nc1ccccn1)Oc1ccc(Cl)cc1` (centres undefined), the normalized activity (activation) was inactive: -0.11%.

As to `Cc1cccc(NP(C)(=O)Oc2ccccc2)c1` (centres undefined), the normalized activity (activation) is inactive: 0.21%.

Consider `CCOC(=O)c1ccc(NP(C)(=O)Oc2ccc(OC)cc2)cc1` (centres undefined), for which the normalized activity (activation) is inactive: 0.2%.

As for `Cc1ccc(Cl)cc1OP(C)(=O)Nc1cccc2nsnc12` (centres undefined), the normalized activity (activation) was inactive: -0.22%.

With `CCOP(C)(=S)SCC(=O)NC(C)C(=O)O` (centres undefined), the normalized activity (activation) was inactive: -0.04%.

As for `COc1ccccc1OP(C)(=O)Nc1cccc(Cl)c1C` (centres undefined), the normalized activity (activation) was inactive: 0.15%.

Regarding `CP(=O)(O)OC(c1ccc(Cl)cc1)C(F)(F)F` (centres undefined), the normalized activity (activation) was inactive: 0%.

As to `CP(=O)(NC(=O)Nc1ccccc1)Oc1ccccc1` (centres undefined), the normalized activity (activation) is inactive: -0.04%.

Consider `CP(=O)(O)OC(c1cccc(Cl)c1)C(F)(F)F` (centres undefined), for which the normalized activity (activation) is inactive: 0.02%.

For `Cc1ccc(NP(C)(=O)Oc2ccccc2)cc1C` (centres undefined), the normalized activity (activation) is inactive: -0.04%.

Regarding `CCN(CC)P(=O)(c1c([N+](=O)[O-])cc([N+](=O)[O-])cc1[N+](=O)[O-])N(CC)CC`, the normalized activity (activation) is inactive: -0.1%.

Regarding `COc1cc2nc(C)sc2cc1NC(C)=O`, the normalized activity (activation) is inactive: 0.42%.

As to `CCOP(C)(=S)SCC(=O)NC(Cc1ccccc1)C(=O)O` (centres undefined), the normalized activity (activation) was inactive: -0.46%.

Regarding `C=C(C)CC1NC2CC(C)(C)C1c1ccccc12.O=[N+]([O-])c1cc([N+](=O)[O-])c(O)c([N+](=O)[O-])c1` (centres undefined), the normalized activity (activation) was inactive: -0.04%.

As for `COc1ccc(NP(C)(=O)Oc2ccc(C(C)C)cc2)cc1` (centres undefined), the normalized activity (activation) was inactive: 0.1%.

For the compound `O=[N+]([O-])c1c(NCCO)c([N+](=O)[O-])c(NCCO)c([N+](=O)[O-])c1NCCO`, the normalized activity (activation) was inactive: 0.27%.

In the case of `CCOP(C)(=S)SCN(CC(=O)O)C(=O)OC` (centres undefined), the normalized activity (activation) was inactive: 0.16%.

With `CC(C)Oc1ccc(NP(C)(=O)Oc2ccc(Cl)cc2)cc1` (centres undefined), the normalized activity (activation) is inactive: -0.1%.

For `CCCCOC(=O)Nc1c([N+](=O)[O-])cc([N+](=O)[O-])cc1[N+](=O)[O-]`, the normalized activity (activation) is inactive: -0.02%.

With `COc1ccccc1OP(C)(=O)Nc1ccc(Cl)cc1Cl` (centres undefined), the normalized activity (activation) was inactive: -0.25%.

Turning to `Cc1cc(C)cc(OP(C)(=O)Nc2ccc(F)cc2)c1` (centres undefined), the normalized activity (activation) was inactive: -0.11%.

As to `CCN(CC)c1nc(C)cc(C)n1.O=[N+]([O-])c1cc([N+](=O)[O-])c(O)c([N+](=O)[O-])c1`, the normalized activity (activation) was inactive: 0%.

For the compound `Cc1ccc(NP(C)(=O)Oc2ccccc2)cc1` (centres undefined), the normalized activity (activation) is inactive: 0.13%.

As for `CCN(CC)CCCOC(=O)C(O)(c1ccccc1)c1ccccc1`, the normalized activity (activation) was inactive: -0.05%.

As to `Cc1ccc2c(c1)c1nc(C)sc1n2C.O=[N+]([O-])c1cc([N+](=O)[O-])c(O)c([N+](=O)[O-])c1`, the normalized activity (activation) is inactive: -0.79%.

Turning to `COc1ccccc1OP(C)(=O)Nc1cc(Cl)ccc1C` (centres undefined), the normalized activity (activation) was inactive: 0.23%.

For `COc1ccccc1OP(C)(=O)Nc1ccc(C)cc1` (centres undefined), the normalized activity (activation) is inactive: -0.11%.

`Cc1ccc(NP(C)(=O)Oc2ccccc2)c(C)c1` (centres undefined): the normalized activity (activation) was inactive: -0.22%.

Take `CCOC(=O)c1ccc(NP(C)(=O)Oc2ccccc2)cc1` (centres undefined): the normalized activity (activation) is inactive: 0.4%.

For `Cc1cc(C)cc(OP(C)(=O)NCc2ccccc2)c1` (centres undefined), the normalized activity (activation) is inactive: 0.25%.

On to `CP(=O)(O)OC(c1cccc(C(F)(F)F)c1)C(F)(F)F` (centres undefined), for which the normalized activity (activation) was inactive: 0.12%.

As for `O=C(O)C(O)(c1ccccc1)c1ccccc1`, the normalized activity (activation) is inactive: -0.05%.

Consider `O=C(O)C1(O)c2ccccc2-c2ccccc21`, for which the normalized activity (activation) was inactive: -0.04%.

As for `CC(C)(C)c1ccc(OP(C)(N)=O)cc1` (centres undefined), the normalized activity (activation) is inactive: 0.83%.

Turning to `CC(CCN([N+](=O)[O-])S(=O)(=O)c1ccc([N+](=O)[O-])cc1)([N+](=O)[O-])[N+](=O)[O-]`, the normalized activity (activation) is inactive: 0.1%.

For `CCc1ccc(OP(C)(=O)Nc2ccccc2I)cc1` (centres undefined), the normalized activity (activation) is inactive: 0.13%.

On to `CP1(=O)Oc2ccccc2Cc2ccccc2O1`, for which the normalized activity (activation) is inactive: 0.2%.

For the compound `O=C(O)Cc1c([N+](=O)[O-])cc([N+](=O)[O-])cc1[N+](=O)[O-]`, the normalized activity (activation) was inactive: 0.18%.

With `O=[N+]([O-])C12CC3(O)CC([N+](=O)[O-])(C1)CC([N+](=O)[O-])(C3)C2`, the normalized activity (activation) is inactive: -0.05%.

In the case of `O=[N+]([O-])Nc1nc(CCc2n[nH]c(N[N+](=O)[O-])n2)n[nH]1`, the normalized activity (activation) is inactive: 0.09%.

With `Cc1ccc(Cl)c(OP(C)(=O)Nc2ccccn2)c1` (centres undefined), the normalized activity (activation) is inactive: -0.17%.

Turning to `Nc1c([N+](=O)[O-])cc([N+](=O)[O-])c(Nc2ccc(C(=O)O)cc2)c1[N+](=O)[O-]`, the normalized activity (activation) is inactive: 0.53%.

Consider `O=[N+]([O-])c1cnc(Nc2c([N+](=O)[O-])cc([N+](=O)[O-])cc2[N+](=O)[O-])c([N+](=O)[O-])c1`, for which the normalized activity (activation) is inactive: -0.55%.

For the compound `CC(=O)NC1(NC(C)=O)CC(C)N(C)CC1C.O=[N+]([O-])c1cc([N+](=O)[O-])c(O)c([N+](=O)[O-])c1` (centres undefined), the normalized activity (activation) was inactive: -0.06%.
